Assay results from patent publication US5696093A (CRC for Biopharmaceutical Research Pty Limited, priority 1994, dated 1997).

Sequences of proteins named here, by UniProt entry; tags and fusion partners are left off.
UniProt P49146, whole entry: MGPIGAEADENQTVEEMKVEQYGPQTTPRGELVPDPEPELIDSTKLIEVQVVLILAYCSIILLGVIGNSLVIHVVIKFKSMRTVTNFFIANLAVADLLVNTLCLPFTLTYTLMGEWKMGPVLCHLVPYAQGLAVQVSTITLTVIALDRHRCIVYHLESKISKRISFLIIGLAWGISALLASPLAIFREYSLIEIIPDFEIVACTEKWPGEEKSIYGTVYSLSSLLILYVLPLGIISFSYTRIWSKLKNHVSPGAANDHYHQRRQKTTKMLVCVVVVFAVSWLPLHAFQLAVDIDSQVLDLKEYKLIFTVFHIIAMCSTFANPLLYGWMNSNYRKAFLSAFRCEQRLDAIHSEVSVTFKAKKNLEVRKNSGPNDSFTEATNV

Target: T1, neuropeptide Y Y2 receptor (Homo sapiens, UniProt P49146)
T1 construct: endogenous in cells; host or cells: SMS-KAN human neuroblastoma cells (whole cells; gift of Dr Thue Schwartz)
Assay: Competition with radiolabelled peptide YY for binding to SMS-KAN cells

binding to Y2 receptor on SMS-KAN cells, in words: little binding
Substance: neuropeptide Y-(13-32)
